Reference: patent US7741286B2, “Long lasting anti-angiogenic peptides” (ConjuChem Biotechnologies Inc., priority 1999, dated 2010)

Assay: Stability of MPA-K5-HSA conjugate in plasma (HPLC-MS of intact conjugate and albumin forms)
Assay type: in vitro ADME
Details: 37° in human plasma
Protocol: MPA-K5 (modified K5 peptide) was incubated with 25% HSA for 2 hours at room temperature. The MPA-K5-HSA conjugate was then incubated at 37° in the presence of human plasma at a final concentration of 160 μm. After the specific incubation period (0, 4 and 24 hours) an aliquot of 100 μl was withdrawn and filtered through a 0.22 μm filter. The presence of intact conjugate was assayed by HPLC-MS.
The column was an Aquapore RP-300, 250×4.6 mm, 7μ particle size. The column temperature was 50° C. The mobile phase A was 0.1% TFA/water. The mobile phase B was 0.1% TFA/acetonitrile. The injection volume was 1 μl. The gradient was as follows: […]
The peptide was detected at 214 mm for quantification. For mass spectral analysis of the peptide, the ionization mode was API-electrospray at 1280 to 1500 m/z range, gain 1.0, fragmentor 125V, threshold 100, stepsize 0.40. The gas temperature was 350° C. the drying gas was 13.0 l/min. The pressure was 60 psi and the Vcap was 6000V.
Approximately 33% of circulating albumin in the bloodstream is mercaptalbumin (SH-albumin) which is not blocked by endogenous sulfhydryl compounds such as cysteine or glutathione and is therefore available for reaction with maleimido groups. The remaining 66% of the circulating albumin is capped or blocked by sulfhydryl compounds. The HPLC MS assay permits the identification of capped-HSA, SH-albumin and K5-MPA-albumin. The MPA covalently bonds to the free thiol on the albumin. The stability of the three forms of albumin in plasma is presented below.

Substance	% SH-Albumin (0 hrs) [%]	% SH-Albumin (4 hrs) [%]	% SH-Albumin (24 hrs) [%]	% capped HSA (0 hrs) [%]	% capped HSA (4 hrs) [%]	% capped HSA (24 hrs) [%]
SH-Albumin: mercaptalbumin, not blocked by endogenous sulfhydryl compounds, available for reaction with maleimido groups	16.6	16.05	16.8	–	–	–
capped HSA: circulating albumin capped or blocked by sulfhydryl compounds such as cysteine or glutathione	–	–	–	61.3	64.6	63
